These molecules were tested against purified human Factor XIa (Homo sapiens (Human), UniProt P03951) (assay: Factor XIa Assay). Conditions: purified human Factor XIa 40 pM; substrate Z-Gly-Pro-Arg-AFC 100 μM; 50 mM HEPES pH 7.4; read-out: Human FXIa Ki.
Assay type: biochemical
Procedure: The effectiveness of a compound of the present invention as an inhibitor of Coagulation Factor XIa can be determined using a relevant purified serine protease, and an appropriate synthetic substrate. The rate of hydrolysis of the chromogenic or fluorogenic substrate by the relevant serine protease was measured both in the absence and presence of compounds of the present invention. Assays were conducted at rt or at 37° C. […] A decrease in the rate of fluorescence change in the presence of inhibitor is indicative of enzyme inhibition. Such methods are known to one skilled in the art. The results of this assay are expressed as the inhibitory constant, Ki.
Factor XIa determinations were made in 50 mM HEPES buffer at pH 7.4 containing 150 mM NaCl, 5 mM CaCl2, and 0.1% PEG 8000 (polyethylene glycol; JT Baker or Fisher Scientific). Determinations were made using purified human Factor XIa at a final concentration of 40 pM (Sekisui Diagnostics) and he synthetic substrate, Z-Gly-Pro-Arg-AFC, TFA salt (Sigma #C0980) at a concentration of 100 μM.
Times required to achieve equilibration between enzyme and inhibitor were determined in control experiments. Initial velocities of product formation in the absence (Vo) or presence of inhibitor (Vi) were measured. Assuming competitive inhibition, and that unity is negligible compared Km/[S], [I]/e, and [I]/e (where [S], [I], and e respectively represent the total concentrations, of substrate, inhibitor and enzyme), the equilibrium constant (Ki) for dissociation of the inhibitor from the enzyme can be obtained from the dependence of Vo/Vi on [I] shown in the following equation.

Amino acid sequences for entries named in this document (tags omitted). Residues count along the entry.
UniProt P03951, 19-387 partner: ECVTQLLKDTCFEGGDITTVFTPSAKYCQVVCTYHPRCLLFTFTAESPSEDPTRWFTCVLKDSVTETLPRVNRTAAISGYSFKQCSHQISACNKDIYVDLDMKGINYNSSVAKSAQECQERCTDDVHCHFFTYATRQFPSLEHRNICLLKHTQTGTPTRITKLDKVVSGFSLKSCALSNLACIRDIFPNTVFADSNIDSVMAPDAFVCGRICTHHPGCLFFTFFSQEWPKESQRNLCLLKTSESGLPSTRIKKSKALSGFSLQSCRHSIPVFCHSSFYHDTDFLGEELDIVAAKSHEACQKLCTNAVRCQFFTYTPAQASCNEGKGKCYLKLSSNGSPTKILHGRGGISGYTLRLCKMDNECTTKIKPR
UniProt P03951, 388-625: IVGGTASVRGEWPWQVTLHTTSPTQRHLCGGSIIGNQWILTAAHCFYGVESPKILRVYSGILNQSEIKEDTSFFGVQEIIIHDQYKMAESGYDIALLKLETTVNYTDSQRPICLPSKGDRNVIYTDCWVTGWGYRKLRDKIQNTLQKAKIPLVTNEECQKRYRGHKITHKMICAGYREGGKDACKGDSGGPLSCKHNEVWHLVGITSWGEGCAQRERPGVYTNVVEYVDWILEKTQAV

| SMILES | Ki [nM] |
| --- | --- |
| CCc1[nH]c2nc1-c1ccc(NC(=O)OC)cc1NC(=O)[C@@H](C)CCC[C@H]2c1ccc(-c2c(F)cccc2OC(F)F)c[n+]1[O-] (single isomer, unassigned) [Example 146-d] | 73.9 |
| COC(=O)Nc1ccc2c(c1)NC(=O)C(C)CCCC(c1cc(OC)c(-c3c(F)ccc(Cl)c3F)c[n+]1[O-])c1cccc-2c1 (single isomer, unassigned) [Example 88-c, 5-(3-Chloro-2,6-difluorophenyl)-4-methoxy-2-(2^4-((methoxycarbonyl)amino)-5-methyl-4-oxo-3-aza-1(1,3),2(1,2) -dibenzenacyclononaphane-9-yl)pyridine 1-oxide] | 197 |
| C[C@@H]1CCC[C@H](c2ccc(-c3c(F)ccc(F)c3F)c[n+]2[O-])c2cccc(c2)-c2c(cnn2C(F)F)NC1=O (single isomer, unassigned) [Example 170-a] | 195 |
| COC(=O)Nc1ccc2c(c1)NC(=O)[C@@H](C)CCC[C@@H](c1ccc(-c3c(F)ccc(Cl)c3F)c[n+]1[O-])c1cc-2ncc1F (single isomer, unassigned) [Example 76-c] | 64 |
| COC(=O)Nc1ccc2c(c1)NC(=O)[C@H](C)CCC[C@@H](c1ccc(-c3c(F)cccc3F)c[n+]1[O-])c1nc-2c(C2CC2)[nH]1 (single isomer, unassigned) [Example 145-d] | 66.2 |
| COC(=O)Nc1ccc2c(c1)NC(=O)[C@H](C)CCC[C@H](c1ccc(-c3c(F)ccc(Cl)c3F)c[n+]1[O-])c1cc-2ncc1F (single isomer, unassigned) [Example 76-a] | 0.16 |
| COC(=O)Nc1ccc2c(c1)NC(=O)[C@H](C)CCC[C@H](c1ccc(-c3c(OC(F)F)ccc(F)c3F)c[n+]1[O-])c1nc-2c(C)[nH]1 (single isomer, unassigned) [Example 150-a] | 0.13 |
| COC(=O)Nc1ccc2c(c1)NC(=O)CC[C@@H](C)C[C@H](c1ccc(-c3c(F)cccc3OC(F)F)c[n+]1[O-])c1nc-2c(C)[nH]1 (single isomer, unassigned) [Example 152-a] | 0.09 |
| COC(=O)Nc1ccc2c(c1)NC(=O)[C@H](C)CCC[C@@H](c1ccc(-c3c(OC(F)F)ccc(F)c3F)c[n+]1[O-])c1nc-2c(C)[nH]1 (single isomer, unassigned) [Example 150-d] | 20 |
| COC(=O)Nc1ccc2c(c1)NC(=O)[C@@H](C)CCC[C@@H](c1ccc(-c3c(OC(F)F)ccc(F)c3F)c[n+]1[O-])c1nc-2c(C)[nH]1 (single isomer, unassigned) [Example 150-b] | 8.49 |
| COC(=O)Nc1ccc2c(c1)NC(=O)C(C)CCCC(c1cc(OC)c(-c3c(F)ccc(Cl)c3F)c[n+]1[O-])c1cccc-2c1 (single isomer, unassigned) [Example 88-a, 5-(3-Chloro-2,6-difluorophenyl)-4-methoxy-2-(2^4-((methoxycarbonyl)amino)-5-methyl-4-oxo-3-aza-1(1,3),2(1,2) -dibenzenacyclononaphane-9-yl)pyridine 1-oxide] | 186 |
| COC(=O)Nc1ccc2c(c1)NC(=O)[C@@H](C)CCC[C@@H](c1ccc(-c3c(F)cccc3F)c[n+]1[O-])c1nc-2c(C2CC2)[nH]1 (single isomer, unassigned) [Example 145-b] | 45.1 |
| COC(=O)Nc1ccc2c(c1)NC(=O)CCCCC(c1ccc(-c3c(F)ccc(Cl)c3F)c[n+]1[O-])c1ccnc-2c1 (single isomer, unassigned) [Example 93-a, 5-(3-Chloro-2,6-difluorophenyl)-2-(2^4-((methoxycarbonyl)amino)-4-oxo-3-aza-1 (2,4)-pyridina-2(1,2)-benzenacyclononaphane-9-yl)pyridine 1-oxide] | 0.89 |
| COC(=O)Nc1ccc2c(c1)NC(=O)CC[C@H](C)C[C@H](c1ccc(-c3c(F)cccc3OC(F)F)c[n+]1[O-])c1nc-2c(C)[nH]1 (single isomer, unassigned) [Example 152-b] | 5.5 |
| COC(=O)Nc1ccc2c(c1)NC(=O)C(C)CCCC(c1ccc(-c3c(F)ccc(Cl)c3F)c[n+]1[O-])c1nc-2c[nH]1 (single isomer, unassigned) [Example 114-d, (Z)-5-(3-chloro-2,6-difluorophenyl)-2-(2^4-((methoxycarbonyl)amino)-5-methyl-4-oxo-1^1H-3-aza-1(4,2)-imidazola-2(1,2) -benzenacyclononaphane-9-yl)pyridine 1-oxide] | 9.96 |
| COC(=O)Nc1ccc2c(c1)NC(=O)CCCC[C@H](c1ccc(-c3c(F)cccc3-n3cc(C(F)(F)F)cn3)c[n+]1[O-])c1nc-2c(C)[nH]1 (single isomer, unassigned) [Example 137] | 2.5 |
| COC(=O)Nc1ccc2c(c1)NC(=O)CCCC[C@H](c1ccc(-c3cc(Cl)ccc3-c3cnco3)c[n+]1[O-])c1cccc-2c1 (single isomer, unassigned) [Example 35] | 0.24 |

| SMILES | Ki [nM] |
| --- | --- |
| COC(=O)Nc1ccc2c(c1)NC(=O)[C@@H](C)CCC[C@H](c1ccc(-c3c(F)cccc3F)c[n+]1[O-])c1nc-2c(C2CC2)[nH]1 (single isomer, unassigned) [Example 145-c] | 0.29 |
| COC(=O)Nc1ccc2c(c1)NC(=O)C(C)CCCC(c1ccc(-c3c(F)ccc(Cl)c3F)cn1)c1cc-2ccn1 (single isomer, unassigned) [Example 95-d, Methyl (9-(5-(3-chloro-2,6-difluorophenyl)pyridin-2-yl)-5-methyl-4-oxo-3-aza-1(4,2)-pyridina-2(1,2)-benzenacyclononaphane-2^4-yl)carbamate] | 2.9 |
| COC(=O)Nc1ccc2c(c1)NC(=O)CC[C@@H](C)C[C@@H](c1ccc(-c3c(F)cccc3OC(F)F)c[n+]1[O-])c1nc-2c(C)[nH]1 (single isomer, unassigned) [Example 152-c] | 43.6 |
| COC(=O)Nc1ccc2c(c1)NC(=O)[C@@H](C)CCC[C@H](c1ccc(-c3cc(Cl)ccc3OC(F)(F)F)c[n+]1[O-])c1cccc-2c1 (single isomer, unassigned) [Example 77-b] | 2.31 |
| COC(=O)Nc1ccc2c(c1)NC(=O)C(C)CCCC(c1ccc(-c3c(F)ccc(Cl)c3F)c[n+]1[O-])c1nc-2c[nH]1 (single isomer, unassigned) [Example 114-b, (Z)-5-(3-chloro-2,6-difluorophenyl)-2-(2^4-((methoxycarbonyl)amino)-5-methyl-4-oxo-1^1H-3-aza-1(4,2)-imidazola-2(1,2) -benzenacyclononaphane-9-yl)pyridine 1-oxide] | 16.5 |
| COC(=O)Nc1ccc2c(c1)NC(=O)C(C)CCCC(c1ccc(-c3c(F)ccc(Cl)c3F)cn1)c1cc-2ccn1 (single isomer, unassigned) [Example 95-c, Methyl (9-(5-(3-chloro-2,6-difluorophenyl)pyridin-2-yl)-5-methyl-4-oxo-3-aza-1(4,2)-pyridina-2(1,2)-benzenacyclononaphane-2^4-yl)carbamate] | 574 |
| COC(=O)Nc1ccc2c(c1)NC(=O)CCCC[C@H](c1ccc(-c3c(F)cccc3OC(F)F)c[n+]1[O-])c1cccc-2c1 (single isomer, unassigned) [Example 34] | 1.52 |
| COC(=O)Nc1ccc2c(c1)NC(=O)CCCC[C@H](c1ccc(-c3c(F)cccc3OC(F)F)c[n+]1[O-])c1nc-2c(C)[nH]1 (single isomer, unassigned) [Example 126] | 0.14 |
| COC(=O)Nc1ccc2c(c1)NC(=O)[C@H](C)CCC[C@H](c1ccc(-c3cc(F)ccc3OC(F)(F)F)c[n+]1[O-])c1nc-2c(C)[nH]1 (single isomer, unassigned) [Example 149-a] | 0.17 |
| COC(=O)Nc1ccc2c(c1)NC(=O)[C@H](C)CCC[C@H](c1ccc(-c3cc(Cl)ccc3OC(F)(F)F)c[n+]1[O-])c1cccc-2c1 (single isomer, unassigned) [Example 77-a] | 0.85 |
| COC(=O)Nc1ccc2c(c1)NC(=O)[C@@H](C)CCC[C@@H](c1ccc(-c3cc(F)ccc3OC(F)(F)F)c[n+]1[O-])c1nc-2c(C)[nH]1 (single isomer, unassigned) [Example 149-b] | 7.9 |
| COC(=O)Nc1ccc2c(c1)NC(=O)[C@@H](C)CCC[C@H](c1ccc(-c3cc(F)ccc3OC(F)(F)F)c[n+]1[O-])c1nc-2c(C)[nH]1 (single isomer, unassigned) [Example 149-c] | 0.69 |
| COC(=O)Nc1ccc2c(c1)NC(=O)CCCC[C@H](c1ccc(-c3c(OC(F)F)ccc(F)c3F)c[n+]1[O-])c1nc-2c(C)[nH]1 (single isomer, unassigned) [Example 130] | 0.15 |
| C[C@@H]1CCC[C@@H](c2ccc(-c3cc(Cl)ccc3-n3cc(C(F)(F)F)cn3)c[n+]2[O-])c2cccc(c2)-c2c(cnn2C(F)F)NC1=O (single isomer, unassigned) [Example 168-b] | > 875 |
| COC(=O)Nc1ccc2c(c1)NC(=O)CCCC[C@H](c1ccc(-c3cc(Cl)ccc3-n3cnnn3)c[n+]1[O-])c1cc-2ncc1F (single isomer, unassigned) [Example 71] | 0.47 |
| COC(=O)Nc1ccc2c(c1)NC(=O)[C@H](C)CCC[C@H](c1ccc(-c3c(F)cccc3F)c[n+]1[O-])c1nc-2c(C2CC2)[nH]1 (single isomer, unassigned) [Example 145-a] | 0.14 |

Reference: patent publication US10214512B2, “Factor XIA inhibitors” (MERCK SHARP & DOHME CORP., priority 2015, dated 2019)
